Experimental data as given in US20230015478A1, “GLP-1 RECEPTOR AGONISTS HAVING IMPROVED PHARMACOLOGICAL AND DRUG DELIVERY PROPERTIES” (priority 2021, published 2023).
Like-named read-outs stand apart in the source and are kept apart here.

Protein sequences, listed by entry. Tags and fused reporters are not part of them. Residues count along the entry.
UniProt P43220, 24-463: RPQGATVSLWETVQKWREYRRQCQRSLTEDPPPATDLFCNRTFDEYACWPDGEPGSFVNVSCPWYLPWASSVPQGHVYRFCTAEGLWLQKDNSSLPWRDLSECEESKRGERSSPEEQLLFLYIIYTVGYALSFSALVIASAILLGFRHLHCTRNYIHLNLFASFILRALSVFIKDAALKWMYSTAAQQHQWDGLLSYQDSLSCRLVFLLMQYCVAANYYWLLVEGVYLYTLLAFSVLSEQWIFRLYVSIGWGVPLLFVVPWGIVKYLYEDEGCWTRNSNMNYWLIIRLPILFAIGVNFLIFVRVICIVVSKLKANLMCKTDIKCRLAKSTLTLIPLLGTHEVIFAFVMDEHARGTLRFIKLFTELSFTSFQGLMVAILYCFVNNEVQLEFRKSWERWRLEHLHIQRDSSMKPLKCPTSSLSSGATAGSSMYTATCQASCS

Molecular target: T1, hGLP1 receptor (Homo sapiens, UniProt P43220)
T1 construct: expressed in transfected cells; host or cells: HEK (human embryonic kidney) cells co-expressing hGLP1 receptor and CRE-Luciferase
Test: cAMP HTRF agonist assay in HEK cells co-expressing hGLP1 receptor and CRE-Luciferase
Type: cell-based
Conditions: Table 6

| Substance | EC50 (read-out: cAMP EC50, nM (0.1% albumin), 0.1% albumin) | EC50 (cells marked (0% albumin), read-out: cAMP EC50, nM (0% albumin)) |
| --- | --- | --- |
| H2N-His-Aib-Glu-Gly-Thr-α-MePhe(2-F)-Thr-Ser-Asp-Bip-Bip-C(O)NH-RY7 [4-45] | 100 nM |  |
| H2N-His-α-MePro-Glu-Gly-Thr-α-MePhe(2F)-Thr-Ser-Asp-α-MeBip-Bip-C(O)NH2 [4-72-i1] |  | 0.2 nM |
